One may read the pEC50 as −log10 of the EC50, conventionally taken in molar units.

Protein sequences, listed by entry. Tags and fused reporters are not part of them.
UniProt P28223, whole entry: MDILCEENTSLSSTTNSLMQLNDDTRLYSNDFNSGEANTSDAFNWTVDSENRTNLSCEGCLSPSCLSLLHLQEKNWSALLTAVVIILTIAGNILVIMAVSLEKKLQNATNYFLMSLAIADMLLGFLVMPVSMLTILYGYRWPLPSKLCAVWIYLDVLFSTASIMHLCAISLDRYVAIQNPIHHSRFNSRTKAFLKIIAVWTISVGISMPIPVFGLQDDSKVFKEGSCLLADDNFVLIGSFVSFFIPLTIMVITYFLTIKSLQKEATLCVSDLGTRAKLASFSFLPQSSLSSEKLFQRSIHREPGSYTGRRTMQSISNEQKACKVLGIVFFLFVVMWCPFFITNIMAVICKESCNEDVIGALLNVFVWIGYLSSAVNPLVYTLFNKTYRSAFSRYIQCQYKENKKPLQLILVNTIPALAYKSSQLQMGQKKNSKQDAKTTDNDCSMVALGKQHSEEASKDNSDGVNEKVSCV

Assay [1] addresses T1, 5HT2A receptor (Homo sapiens, UniProt P28223). In words: Downstream beta-arrestin functional activity assay, method 2 (NanoBret). The conditions noted are these: for β-arrestin Emax%: method 2, highest concentration of 5-HT = 100%; for pEC50: read-out: β-arrestin EC50, method 2, HEK293 cells.
Assay [2] deals with T1, 5HT2A receptor. Nature of the assay: Downstream calcium flux functional activity assay, method 2 (HEK293 cells transiently transfected). The conditions noted are these: for Ca^2+ flux Assay Emax%: method 2, highest concentration of 5-HT = 100%; for pEC50: read-out: Ca^2+ flux Assay EC50, method 2, transiently transfected HEK293 cells. For orientation: Calcium flux is commonly read through the fluorescence of an indicator in the cells.

The target in assay [3] is T1, 5HT2A receptor. Nature of the assay: Downstream calcium flux functional activity assay, method 1 (HEK293 cells stably expressing the receptor).

Each structure is given as a SMILES string. pEC50: −log10 of the molar value.

On to `O=C1CN2c3c(cccc3[C@@H]3CN(CCCc4cccc5c4OCC5)CC[C@H]32)N1` (relative stereo), for which, at 5HT2A receptor [1], the “β-arrestin Emax%” value is 32.67% and the pEC50 was 6.81. For the same compound, at 5HT2A receptor [2], the “Ca^2+ flux Assay Emax%” value is given as 27.36% and the pEC50 is 4.44.

For `CC1C(=O)Nc2cccc3c2N1[C@H]1CCN(CCCc2cccc4c2OCC4)C[C@@H]31` (some centres unmarked), at 5HT2A receptor [1], the “β-arrestin Emax%” value is listed as 46.5% and the pEC50 is 6.43. Also, on 5HT2A receptor [2], the “Ca^2+ flux Assay Emax%” value was 9.139% and the negative logarithm of the EC50 (pEC50) is less than 4.00.

As for `O=C1CN2c3c(cccc3[C@@H]3CN(CCNc4cccc5c4OCC5)CC[C@@H]32)N1`, on 5HT2A receptor [1], the “β-arrestin Emax%” value came to 100.2% and the pEC50 was 6.04.

For the compound `[2H]C([2H])([2H])N1C(=O)CN2c3c(cccc31)[C@@H]1CN(CCCc3nccc4c3OCC4)CC[C@@H]12`, on 5HT2A receptor [1], the “β-arrestin Emax%” value worked out at 81.2% and the pEC50 was 6.18.

As for `O=C1CN2c3c(cccc3[C@@H]3CN(CCc4cccc5c4OCC5)CC[C@@H]32)N1`, on 5HT2A receptor [1], the “β-arrestin Emax%” value was 11.8% and the pEC50 is 6.11.

For the compound `CN1C(=O)CN2c3c(cccc31)[C@@H]1CN(CCCc3c(F)ccc4c3OCC4)CC[C@@H]12`, at 5HT2A receptor [1], the “β-arrestin Emax%” value is on record as 83.6% and the pEC50 was 7.24. Also, on 5HT2A receptor [2], the “Ca^2+ flux Assay Emax%” value worked out at 34.79% and the pEC50 was 5.93.

With `CN1C(=O)CN2c3c(cccc31)[C@@H]1CN(CCC(O)c3cccc4c3OCC4)CC[C@@H]12` (some centres unmarked), at 5HT2A receptor [2], the “Ca^2+ flux Assay Emax%” value came out at 17.38% and the pEC50 is 6.37.

As for `O=C1CN2c3c(cccc3[C@@H]3CN(Cc4cccc5c4OCC5)CC[C@@H]32)N1`, on 5HT2A receptor [1], the “β-arrestin Emax%” value is 79.7% and the pEC50 was 5.50.

Regarding `O=C1CN2c3c(cc(F)cc3C3CN(CCCc4cccc5c4OCC5)CCC32)N1` (centres unmarked), on 5HT2A receptor [2], the “Ca^2+ flux Assay Emax%” value was found to be 18.00% and the pEC50 was 6.12.

`CC(=O)N1CCN2c3c(cccc31)[C@@H]1CN(CC(O)Cc3cccc4c3OCC4)CC[C@@H]12` (some centres unmarked): on 5HT2A receptor [2], the “Ca^2+ flux Assay Emax%” value is given as 1.638% and the pEC50 was less than 4.00.

`CN1CCN2c3c(cc(C#N)cc31)[C@@H]1CN(CCCc3cccc4c3OCC4)CC[C@@H]12`: at 5HT2A receptor [2], the “Ca^2+ flux Assay Emax%” value is on record as 9.991% and the pEC50 was less than 4.00.

Consider `O=C1CN2c3c(cccc3[C@@H]3CN(CCc4cccc5ccoc45)CC[C@@H]32)N1`, for which, on 5HT2A receptor [1], the “β-arrestin Emax%” value is given as 51.7% and the pEC50 is 5.40.

Regarding `O=C1CN2c3c(cccc3[C@@H]3CN(CCCc4cc(O)cc5c4OCC5)CC[C@@H]32)N1`, at 5HT2A receptor [1], the “β-arrestin Emax%” value was 37.9% and the pEC50 is 6.47. Also, on 5HT2A receptor [2], the “Ca^2+ flux Assay Emax%” value is given as 5.83% and the pEC50 was less than 4.00.

For the compound `CC(=O)N1CCN2c3c(cccc31)[C@@H]1CN(CC3CC3c3cccc4c3OCC4)CC[C@@H]12` (some centres unmarked), on 5HT2A receptor [2], the “Ca^2+ flux Assay Emax%” value is 3.884% and the pEC50 was less than 4.00.

Regarding `CN1CCN2c3c(cccc31)[C@@H]1CN(CCCc3ccccc3Oc3ccncc3)CC[C@@H]12`, at 5HT2A receptor [3] (method 1, highest concentration of 5-HT = 100%), the “Ca^2+ flux Assay Emax%” value was 1.35%. Besides, the pEC50 at 5HT2A receptor [3] (read-out: Ca^2+ flux Assay EC50, method 1, HEK293-5HT2AR cells) is less than 4.00.

`O=C1CN2c3c(cccc3[C@@H]3CN(CCOc4cccc5c4OCC5)CC[C@@H]32)N1`: at 5HT2A receptor [2], the “Ca^2+ flux Assay Emax%” value was 12.89% and the pEC50 was 6.18.

Turning to `O=C1CCN2c3c(cccc3[C@@H]3CN(CCCc4cccc5c4OCC5)CC[C@@H]32)N1`, at 5HT2A receptor [1], the “β-arrestin Emax%” value is reported as 55.7% and the negative-log EC50 (pEC50) is 6.77. Further, at 5HT2A receptor [2], the “Ca^2+ flux Assay Emax%” value amounted to 3.69% and the pEC50 is less than 4.00.

With `[2H]C1([2H])C(=O)Nc2cccc3c2N1[C@H]1CCN(CCCc2cccc4c2OCC4)C[C@@H]31`, at 5HT2A receptor [2], the “Ca^2+ flux Assay Emax%” value was found to be 3.316% and the pEC50 was less than 4.00.

On to `O=c1[nH]c2cccc3c2n1[C@H]1CCN(CCCc2cccc4c2OCC4)C[C@@H]31`, for which, at 5HT2A receptor [1], the “β-arrestin Emax%” value is given as 27.5% and the pEC50 was 7.46. For the same compound, at 5HT2A receptor [2], the “Ca^2+ flux Assay Emax%” value is recorded as 0% and the pEC50 was less than 4.00.

Consider `CN1C(=O)CN2c3c(cccc31)[C@@H]1CN(CCCc3nccc4c3OCC4)CC[C@@H]12`, for which, at 5HT2A receptor [1], the “β-arrestin Emax%” value stood at 178.3% and the pEC50 is 6.72. Moreover, on 5HT2A receptor [2], the “Ca^2+ flux Assay Emax%” value stood at 18.46% and the pEC50 was 6.38.

Take `CC(=O)N1CCN2c3c(cccc31)[C@@H]1CN(CCCc3cccc4c3OCC4)CC[C@@H]12`: at 5HT2A receptor [2], the “Ca^2+ flux Assay Emax%” value was found to be 10.22% and the pEC50 is 4.33.

As for `O=C1CN2c3c(cccc3[C@@H]3CN(CCCCc4cccc5c4OCC5)CC[C@@H]32)N1`, at 5HT2A receptor [1], the “β-arrestin Emax%” value is listed as 61.8% and the pEC50 was 5.47.

In the case of `O=C1CN2c3c(cccc3[C@@H]3CN(CCCc4cncc5c4OCC5)CC[C@@H]32)N1`, at 5HT2A receptor [1], the “β-arrestin Emax%” value is reported as 84.9% and the pEC50 was 5.62.

For `COc1cc2c3c(c1)N(C)CCN3C1CCN(CCCc3cccc4c3OCC4)CC21` (centres unmarked), at 5HT2A receptor [2], the “Ca^2+ flux Assay Emax%” value worked out at 5.425% and the pEC50 is less than 4.00.

For the compound `CN1C(=O)CN2c3c(cccc31)[C@@H]1CN(CCCc3ncccc3Cl)CC[C@@H]12`, on 5HT2A receptor [1], the “β-arrestin Emax%” value was determined as 80.4% and the pEC50 is 5.99.

With `CN1CCN2c3c(cccc31)[C@@H]1CN(Cc3cccc4c3OCC4)CC[C@@H]12`, on 5HT2A receptor [1], the “β-arrestin Emax%” value was determined as 130.4% and the pEC50 is 5.71.

Regarding `CC1(C)C(=O)Nc2cccc3c2N1[C@H]1CCN(CCCc2cccc4c2OCC4)C[C@@H]31`, at 5HT2A receptor [1], the “β-arrestin Emax%” value is given as 45.4% and the pEC50 is 6.23.

For `c1cc(CCCN2CC[C@H]3[C@@H](C2)c2cccc4c2N3CCN4)c2c(c1)CCO2`, at 5HT2A receptor [1], the “β-arrestin Emax%” value came out at 18.5% and the pEC50 was 7.53. On 5HT2A receptor [2], the “Ca^2+ flux Assay Emax%” value is recorded as 1.35% and the pEC50 is less than 4.00.

`CN1C(=O)CN2c3c(cccc31)[C@@H]1CN(CCOc3nccc4c3OCC4)CC[C@@H]12`: at 5HT2A receptor [1], the “β-arrestin Emax%” value is given as 36.3% and the pEC50 was 6.33. For the same compound, on 5HT2A receptor [2], the “Ca^2+ flux Assay Emax%” value is listed as 38.41% and the pEC50 was 6.80.

As to `CN1C(=O)CCN2c3c(cccc31)[C@@H]1CN(CCCc3cccc4c3OCC4)CC[C@@H]12`, on 5HT2A receptor [1], the “β-arrestin Emax%” value came to 36.7% and the pEC50 was 6.19.

In the case of `O=S1(=O)CCN2c3c(cccc31)C1CN(CCCc3cccc4c3OCC4)CCC12` (centres unmarked), on 5HT2A receptor [2], the “Ca^2+ flux Assay Emax%” value was determined as 8.883% and the pEC50 was less than 4.00.

With `O=c1[nH]c2cccc3c2n(c1=O)[C@H]1CCN(CCCc2cccc4c2OCC4O)C[C@@H]31` (some centres unmarked), on 5HT2A receptor [1], the “β-arrestin Emax%” value is listed as 31.8% and the pEC50 is 5.99.

Turning to `O=C1CN2c3c(cccc3[C@H]3CN(CCCc4cccc5c4OCC5)CC[C@H]32)N1`, on 5HT2A receptor [1], the “β-arrestin Emax%” value is 41.87% and the pEC50 was 7.22.

With `O=C1Nc2cccc3c2N(C1O)[C@H]1CCN(CCCc2cccc4c2OCC4)C[C@@H]31` (some centres unmarked), at 5HT2A receptor [1], the “β-arrestin Emax%” value came to 28.2% and the pEC50 is 6.34.

As to `CCN1CCN2c3c(cccc31)[C@H]1CN(CCCc3cccc4c3OCC4)CC[C@H]12`, at 5HT2A receptor [1], the “β-arrestin Emax%” value is recorded as 44.3% and the pEC50 was 8.80.

Turning to `O=C1CN2c3c(cccc3[C@@H]3CN(CCCc4cc(F)cc5c4OCC5)CC[C@@H]32)N1`, at 5HT2A receptor [1], the “β-arrestin Emax%” value amounted to 77.9% and the pEC50 was 6.18.

On to `COc1cccnc1CCCN1CC[C@H]2[C@@H](C1)c1cccc3c1N2CC(=O)N3C`, for which, at 5HT2A receptor [1], the “β-arrestin Emax%” value is 54.3% and the pEC50 is 6.12.

Values taken from patent publication EP4847510A1, “TETRACYCLIC COMPOUND, AND PREPARATION METHOD, PHARMACEUTICAL COMPOSITION, AND USE THEREOF” (dated 2026).
